Antibody variant affinities, Ab-14 light chain, assay 1

Data: MIT Lincoln Laboratory AlphaSeq set, Engelhart et al. 2022, doi:10.1038/s41597-022-01779-4, as distributed in FLAb.

Target peptide (SARS-CoV-2 spike, HR2 region): PDVDLGDISGINAS

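The starting antibody came from a phage panning campaign against this peptide. Variants in AAYL50 differ from the parent at up to three CDR positions; double and triple changes were sampled at random. The assay is AlphaSeq: two haploid yeast populations carry antibody and antigen on their surface. Mating (16 h, 30 °C) was followed by selection of diploids and sequencing of their barcodes. Scores were corrected for input abundance and mapped to Kd with protein pairs of known affinity run in the same pool. The assay was run in three technical replicates.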

Ab-14 is the parent antibody, in scFv form: VH, then a (GGGGS)3 linker, then VL. The heavy chain is unchanged in all variants.
VH: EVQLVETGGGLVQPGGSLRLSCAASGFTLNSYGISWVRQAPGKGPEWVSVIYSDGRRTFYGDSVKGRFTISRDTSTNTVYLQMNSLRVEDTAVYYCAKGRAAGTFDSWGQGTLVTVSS
VL: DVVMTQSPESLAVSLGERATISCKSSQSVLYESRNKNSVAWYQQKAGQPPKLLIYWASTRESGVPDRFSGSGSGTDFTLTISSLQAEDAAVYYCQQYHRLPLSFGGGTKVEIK

The parent's light chain CDRs are KSSQSVLYESRNKNSVA, WASTRES, QQYHRLPLS; each variant's own CDRs replace them letter for letter. Values are log10 of the apparent Kd in nM; lower means stronger binding. "n.d." marks a missing value. The strain was present, yet no cells mated with the target were sequenced in that replicate, which points to weak or no binding. In this assay the parent's reference entry averaged 0.65; its copy inside this library read 1.68.

{"CDR-L1": "KVSQSVLYESRNKNSVA", "CDR-L2": "VASTRES", "CDR-L3": "QQYHRLDLS", "replicates, log10 nM": "n.d. n.d. n.d.", "control signals": "3/9 (4.25)"}
{"CDR-L1": "KSSQSVLYESRNKKSVA", "CDR-L2": "WASTREL", "CDR-L3": "NQYHRLPLS", "replicates, log10 nM": "2.25 2.44 2.19", "control signals": "1/9 (4.23)"}
{"CDR-L1": "KSSQSVLYESRNKNSPA", "CDR-L2": "WAGTRES", "CDR-L3": "QQYHRHPLS", "replicates, log10 nM": "n.d. n.d. 5.11", "control signals": "0/9"}
{"CDR-L1": "TSSQSVLYESRNKNSRA", "CDR-L2": "WAQTRES", "CDR-L3": "QQYHRLPLS", "replicates, log10 nM": "6.66 n.d. n.d.", "control signals": "4/9 (4.92)"}
{"CDR-L1": "KSSQSVLYESRCKNSVA", "CDR-L2": "WASPRES", "CDR-L3": "VQYHRLPLS", "replicates, log10 nM": "5.85 n.d. n.d.", "control signals": "2/9 (3.13)"}
{"CDR-L1": "KSSQSVLYESRNKNSVA", "CDR-L2": "WASTRTA", "CDR-L3": "QQYHRLPFS", "replicates, log10 nM": "0.99 1.44 1.50", "control signals": "0/9"}
{"CDR-L1": "KSKQSVLYESQNKNSVA", "CDR-L2": "WAPTRES", "CDR-L3": "QQYHRLPLS", "replicates, log10 nM": "n.d. n.d. n.d.", "control signals": "1/9 (3.80)"}
{"CDR-L1": "GSSQSVLIESRNMNSVA", "CDR-L2": "WASTRES", "CDR-L3": "QQYHRLPLS", "replicates, log10 nM": "1.59 1.76 1.67", "control signals": "1/9 (4.18)"}
{"CDR-L1": "KSSQSVLMESRNKNSVA", "CDR-L2": "WASLRES", "CDR-L3": "QQYHLLPLS", "replicates, log10 nM": "0.92 1.01 1.21", "control signals": "0/9"}
{"CDR-L1": "KSSQSVLYESRNDISVA", "CDR-L2": "WASTRES", "CDR-L3": "AQYHRLPLS", "replicates, log10 nM": "n.d. n.d. n.d.", "control signals": "0/9"}
{"CDR-L1": "KSSQSVLYESRMKNSVA", "CDR-L2": "WASTRES", "CDR-L3": "QQYHTLPLS", "replicates, log10 nM": "1.78 1.70 1.42", "control signals": "0/9"}
{"CDR-L1": "KSSQSVLYWSRRKNSVA", "CDR-L2": "WASTRES", "CDR-L3": "QQYHRLGLS", "replicates, log10 nM": "2.93 2.42 2.86", "control signals": "0/9"}
{"CDR-L1": "RSSQSVLYESRNKNSVA", "CDR-L2": "WSCTRES", "CDR-L3": "QQYHRLPLS", "replicates, log10 nM": "n.d. n.d. n.d.", "control signals": "0/9"}
{"CDR-L1": "KSSQEVLYESANKNSVA", "CDR-L2": "FASTRES", "CDR-L3": "QQYHRLPLS", "replicates, log10 nM": "6.12 3.70 5.35", "control signals": "3/9 (4.15)"}
{"CDR-L1": "KSSQSVLYESRNANSVA", "CDR-L2": "WAQTRES", "CDR-L3": "QQYHRLPLM", "replicates, log10 nM": "1.11 1.27 1.45", "control signals": "3/9 (4.24)"}
{"CDR-L1": "KSSQSVYYEERNKNSVA", "CDR-L2": "WASTRES", "CDR-L3": "QQYHRLPQS", "replicates, log10 nM": "n.d. n.d. 3.45", "control signals": "1/9 (3.85)"}
{"CDR-L1": "KSSQSVLYESRNMNSVQ", "CDR-L2": "WISTRES", "CDR-L3": "QQYHRLPLS", "replicates, log10 nM": "n.d. n.d. 4.01", "control signals": "2/9 (3.20)"}
{"CDR-L1": "KSVQSVLYESRNWNSVA", "CDR-L2": "WASTRES", "CDR-L3": "QQSHRLPLS", "replicates, log10 nM": "4.90 n.d. 5.13", "control signals": "3/9 (4.50)"}
{"CDR-L1": "KSSGSALYESRNKNSVA", "CDR-L2": "WASTRES", "CDR-L3": "QQYWRLPLS", "replicates, log10 nM": "2.13 2.35 2.26", "control signals": "2/9 (3.67)"}
{"CDR-L1": "KSSQQVLYESRNKNSRA", "CDR-L2": "WASNRES", "CDR-L3": "QQYHRLPLS", "replicates, log10 nM": "3.52 n.d. n.d.", "control signals": "1/9 (3.98)"}
{"CDR-L1": "KSSQDVLYESRNKNSVA", "CDR-L2": "WLSTRES", "CDR-L3": "QQYHRLPLA", "replicates, log10 nM": "2.52 3.66 3.38", "control signals": "2/9 (4.07)"}
{"CDR-L1": "KSYQSVLEESRKKNSVA", "CDR-L2": "WASTRES", "CDR-L3": "QQYHRLPLS", "replicates, log10 nM": "1.10 1.25 1.26", "control signals": "4/9 (4.63)"}

The first 3 variants above that were never detected:

| CDR-L1 | CDR-L2 | CDR-L3 | replicates, log10 nM | control signals |
|---|---|---|---|---|
| KVSQSVLYESRNKNSVA | VASTRES | QQYHRLDLS | n.d. n.d. n.d. | 3/9 (4.25) |
| KSKQSVLYESQNKNSVA | WAPTRES | QQYHRLPLS | n.d. n.d. n.d. | 1/9 (3.80) |
| KSSQSVLYESRNDISVA | WASTRES | AQYHRLPLS | n.d. n.d. n.d. | 0/9 |

Empty control strains, which show no peptide, gave a signal in 18% of pairings with library AAYL50; the median was 4.19 and 95% of these signals were weaker than 2.99. No background was subtracted. For each scFv, signals with the empty controls are counted beside the result, with their mean in brackets.